Values quoted from earlier work as cited in paper PMC11054906, “A Population Pharmacokinetic Study to Compare a Novel Empagliflozin L-Proline Formulation with Its Conventional Formulation in Healthy Subjects” (Pharmaceuticals, 2024).

Experiments:
[1] = cited from earlier work
[2] = preclinical studies; ref data on file; cited from earlier work

**Q.** Which “bioequivalence to conventional empagliflozin formulation” value ([1]; South Korea, AUClast and Cmax after single-dose administration) does the source give for Empagliflozin L-proline here?
**A.** bioequivalent

**Q.** And the “minimum Tmax values compared with empagliflozin” value ([1]; two dose strengths)?
**A.** larger than that of empagliflozin

**Q.** What about the “fate in the digestive system and absorbed form” value [2] of the same substance?
**A.** broken down to empagliflozin in the digestive system and be absorbed in the form of empagliflozin
